# Experiments:
# [1] = tested on: OVCAR-8 cells; test: Model with subcutaneous transplantation of OVCAR-8 cells (tumor volume T/C, body weight), Example 5; conditions: for %BWL (Daily maximum): BALB/c nude mice, day in parentheses; for T/C(%): Day 22; for Number of animals removed: N 6; for Average tumor volume (mm^3) day22: day 22
# [2] = tested on: HL-60; test: Cell proliferation assay (ATPlite 1Step), single agents and combination with Compound A, curve-shift and CI; 72 h culture, 120 h for EPZ-6438, JQ1, MLN-4924, MLN-7243, MPI-0479605, NMS-P715
# [3] = tested on: NCI-H661; test: as above
# [4] = tested on: MV-4-11 cells; test: Model with subcutaneous transplantation of MV-4-11 cells (tumor volume T/C, body weight), three-agent combination, Example 4; conditions: for %BWL (Daily maximum): BALB/cA Jcl-nu/nu mice, day in parentheses; for Number of animals removed: N 5
# [5] = tested on: MV-4-11 cells; test: Model with subcutaneous transplantation of MV-4-11 cells (tumor volume T/C, body weight), two-agent combinations, Example 3; conditions: for %BWL (Daily maximum): BALB/cA Jcl-nu/nu mice, day in parentheses; for T/C(%): Day 15; for Number of animals removed: N 5
# [6] = tested on: MC38 cells; test: Model with subcutaneous transplantation of MC38 cells (tumor volume T/C, body weight), Example 2; conditions: G2, 12.5 mg/kg PO BID BIW
# [7] = NCI-H661, blending ratio (Compound A : combined compound) 4:1, Fa 75
smiles,measurement,setting,value
NC(=O)c1cccc2cn(-c3ccc([C@@H]4CCCNC4)cc3)nc12,Average change in tumor volume (mm^3) (Day 22 - Day0),"[1]; G3, 37.5 mg/kg PO QD QD",172.9 mm^3
same,%BWL (Daily maximum),"[1]; G3, 37.5 mg/kg PO QD QD",-3.4(4) %
same,T/C(%),"[1]; G3, 37.5 mg/kg PO QD QD",81.3%
same,Number of animals removed,"[1]; G3, 37.5 mg/kg PO QD QD",0
same,Average tumor volume (mm^3) day22,"[1]; G3, 37.5 mg/kg PO QD QD",331.3 mm^3
same,CI,"[2]; Compound A + combined compound at fixed concentration 1 µM, Fa 75",0.87
same,CI,"[2]; Compound A + combined compound at fixed concentration 1 µM, Fa 90",1.01
CC(=O)O[C@@]12CO[C@@H]1C[C@H](O)[C@@]1(C)C(=O)[C@H](O)C3=C(C)[C@@H](OC(=O)[C@H](O)[C@@H](NC(=O)OC(C)(C)C)c4ccccc4)C[C@@](O)([C@@H](OC(=O)c4ccccc4)[C@H]21)C3(C)C,Average change in tumor volume (mm^3) (Day 22 - Day0),"[1]; G4, 20 mg/kg IV QD QW",85.3 mm^3
same,%BWL (Daily maximum),"[1]; G4, 20 mg/kg IV QD QW",-3.1 (18) %
same,T/C(%),"[1]; G4, 20 mg/kg IV QD QW",40.1%
same,Number of animals removed,"[1]; G4, 20 mg/kg IV QD QW",0
same,Average tumor volume (mm^3) day22,"[1]; G4, 20 mg/kg IV QD QW",243.6 mm^3
same,CI,"[3]; NCI-H661, blending ratio (Compound A : combined compound) 1:4, Fa 75",0.10
same,CI,[3]; [7],0.10
Nc1ncn([C@@H]2O[C@H](CO)[C@@H](O)[C@H]2O)c(=O)n1,Average change in tumor volume (mm^3) (Day 15 - Day 1),"[4]; G5, 5 mg/kg SC QD BIW",344.6 mm^3
same,%BWL (Daily maximum),"[4]; G5, 5 mg/kg SC QD BIW",0.0(0) %
same,T/C(%),"[4]; G5, 5 mg/kg SC QD BIW, Day 15",85.2%
same,Number of animals removed,"[4]; G5, 5 mg/kg SC QD BIW",0
same,Average tumor volume (mm^3) day 15,"[4]; G5, 5 mg/kg SC QD BIW",452.2 mm^3
same,Average change in tumor volume (mm^3) (Day 15 - Day 1),"[5]; G6, 5 mg/kg SC QD BIW",446.6 mm^3
same,%BWL (Daily maximum),"[5]; G6, 5 mg/kg SC QD BIW",0.0(1) %
same,T/C(%),"[5]; G6, 5 mg/kg SC QD BIW",76.1%
same,Number of animals removed,"[5]; G6, 5 mg/kg SC QD BIW",0
same,Average tumor volume (mm^3) day 15,"[5]; G6, 5 mg/kg SC QD BIW",579.2 mm^3
COc1ncnn2ccc(-c3cnc4nc(C)n(Cc5nnc([C@@H](C)F)o5)c4c3)c12,Average change in tumor volume (mm^3) (Day 12 - Day 0),[6],1770 mm^3
same,%BWL (Daily maximum),"[6]; C57BL/6 mice, day in parentheses",0.0(0) %
same,T/C(%),[6]; Day 12,72.2%
same,Number of animals removed,[6]; N 10,0
same,Average tumor volume (mm^3) day12±SEM,[6]; day 12,1874.4±156.1 mm^3
same,T/C value (%),"[4]; Day 15, female BALB/cA Jcl-nu/nu mice, single agent (G2), Compound A 6.25 mg/kg PO BID BIW, 14 days",1.8%
same,Average change in tumor volume (mm^3) (Day 15 - Day 1),"[4]; G2, 6.25 mg/kg PO BID BIW",7.2 mm^3
same,%BWL (Daily maximum),"[4]; G2, 6.25 mg/kg PO BID BIW",0.0(0) %
same,T/C(%),"[4]; G2, 6.25 mg/kg PO BID BIW, Day 15",1.8%
same,Number of animals removed,"[4]; G2, 6.25 mg/kg PO BID BIW",0
same,Average tumor volume (mm^3) day 15,"[4]; G2, 6.25 mg/kg PO BID BIW",118.5 mm^3
same,Average change in tumor volume (mm^3) (Day 22 - Day0),"[1]; G2, 12.5 mg/kg PO BID BIW",113.9 mm^3
same,%BWL (Daily maximum),"[1]; G2, 12.5 mg/kg PO BID BIW",-1.7(4) %
same,T/C(%),"[1]; G2, 12.5 mg/kg PO BID BIW",53.6%
same,Number of animals removed,"[1]; G2, 12.5 mg/kg PO BID BIW",0
same,Average tumor volume (mm^3) day22,"[1]; G2, 12.5 mg/kg PO BID BIW",272.7 mm^3
same,Average change in tumor volume (mm^3) (Day 15 - Day 1),"[5]; G2, 6.25 mg/kg PO BID BIW",106.2 mm^3
same,%BWL (Daily maximum),"[5]; G2, 6.25 mg/kg PO BID BIW",0.0(1) %
same,T/C(%),"[5]; G2, 6.25 mg/kg PO BID BIW",18.1%
same,Number of animals removed,"[5]; G2, 6.25 mg/kg PO BID BIW",0
same,Average tumor volume (mm^3) day 15,"[5]; G2, 6.25 mg/kg PO BID BIW",241.6 mm^3
CC(=O)O[C@H]1C(=O)[C@@]2(C)[C@H]([C@H](OC(=O)c3ccccc3)[C@]3(O)C[C@H](OC(=O)[C@H](O)[C@@H](NC(=O)c4ccccc4)c4ccccc4)C(C)=C1C3(C)C)[C@]1(OC(C)=O)CO[C@@H]1C[C@@H]2O,Average change in tumor volume (mm^3) (Day 22 - Day0),"[1]; G6, 15 mg/kg IV QD Q4D",168.8 mm^3
same,%BWL (Daily maximum),"[1]; G6, 15 mg/kg IV QD Q4D",-1.3(4) %
same,T/C(%),"[1]; G6, 15 mg/kg IV QD Q4D",79.4%
same,Number of animals removed,"[1]; G6, 15 mg/kg IV QD Q4D",0
same,Average tumor volume (mm^3) day22,"[1]; G6, 15 mg/kg IV QD Q4D",327.4 mm^3
CC(C)(C)c1cc(NC(=O)Nc2ccc(-c3cn4c(n3)sc3cc(OCCN5CCOCC5)ccc34)cc2)no1,Average change in tumor volume (mm^3) (Day 15 - Day 1),"[5]; G3, 0.3 mg/kg PO QD 5ON/2OFF",418.7 mm^3
same,%BWL (Daily maximum),"[5]; G3, 0.3 mg/kg PO QD 5ON/2OFF",0.0(1) %
same,T/C(%),"[5]; G3, 0.3 mg/kg PO QD 5ON/2OFF",71.3%
same,Number of animals removed,"[5]; G3, 0.3 mg/kg PO QD 5ON/2OFF",0
same,Average tumor volume (mm^3) day 15,"[5]; G3, 0.3 mg/kg PO QD 5ON/2OFF",552.2 mm^3
same,CI,"[3]; Compound A : combined compound 4:1, Fa 75, 72 h culture",0.50
CC[C@@H]1C(=O)N(C)c2cnc(Nc3ccc(C(=O)N[C@H]4CC[C@H](N5CCN(CC6CC6)CC5)CC4)cc3OC)nc2N1C(C)C,CI,"[2]; blending ratio (Compound A : combined compound) 1:1, Fa 50",0.99
same,CI,"[2]; blending ratio (Compound A : combined compound) 1:1, Fa 75",0.92
same,CI,"[2]; blending ratio (Compound A : combined compound) 1:1, Fa 90",0.96
same,CI,"[2]; blending ratio (Compound A : combined compound) 1:4, Fa 50",0.90
same,CI,"[2]; blending ratio (Compound A : combined compound) 1:4, Fa 75",0.86
same,CI,"[2]; blending ratio (Compound A : combined compound) 1:4, Fa 90",0.71
same,CI,"[2]; blending ratio (Compound A : combined compound) 4:1, Fa 50",0.97
same,CI,"[2]; blending ratio (Compound A : combined compound) 4:1, Fa 75",0.99
same,CI,"[2]; blending ratio (Compound A : combined compound) 4:1, Fa 90",1.02
same,CI,"[3]; NCI-H661, blending ratio (Compound A : combined compound) 1:1, Fa 75",0.10
same,CI,"[3]; NCI-H661, blending ratio (Compound A : combined compound) 1:4, Fa 50",0.79
same,CI,[3]; [7],0.10
